# ChEMBL document CHEMBL5252536, “Discovery of VU0467485/AZ13713945: An M4 PAM Evaluated as a Preclinical Candidate for the Treatment of Schizophrenia” (ACS Med Chem Lett, 2017)
# Protein sequences, listed by entry. Tags and fused reporters are not part of them.
# UniProt P08485, whole entry, looked up: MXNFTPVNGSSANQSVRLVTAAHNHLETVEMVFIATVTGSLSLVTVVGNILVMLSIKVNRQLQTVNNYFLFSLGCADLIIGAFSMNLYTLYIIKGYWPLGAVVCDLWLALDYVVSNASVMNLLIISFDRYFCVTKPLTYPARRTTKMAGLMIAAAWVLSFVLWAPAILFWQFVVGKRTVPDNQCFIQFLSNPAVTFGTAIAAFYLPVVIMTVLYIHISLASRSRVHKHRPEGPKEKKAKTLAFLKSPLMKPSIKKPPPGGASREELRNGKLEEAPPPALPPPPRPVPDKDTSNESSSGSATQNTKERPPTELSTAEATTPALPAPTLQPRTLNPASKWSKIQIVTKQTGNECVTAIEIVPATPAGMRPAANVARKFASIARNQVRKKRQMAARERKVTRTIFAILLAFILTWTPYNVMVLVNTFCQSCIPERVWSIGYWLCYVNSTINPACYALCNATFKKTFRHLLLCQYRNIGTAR
# Biological target: Muscarinic acetylcholine receptor M4 (Rattus norvegicus, UniProt P08485)
# Test: Positive allosteric modulator activity at rat M4 receptor expressed in CHO cells co-expressing Gqi5 in presence of EC20 concentration of acetylcholine by calcium mobilization assay
smiles,measurement,value
COc1ccc(CNC(=O)c2sc3nnc(C)c(C)c3c2N)cc1F,EC50,26.6 nM
